Target: BTK (Homo sapiens, UniProt Q06187)
Test: Omnia assay for potency assessment against BTK
Type: biochemical
Conditions: [BTK]=5 nM, [ATP]=40 mM, [Y5-Sox]=10 mM; 30 min pre-incubation at 27° C.; read-out: BTK Inhibition
Method: 5 μL of each enzyme were pre-incubated in a Corning (#3574) 384-well, white, non-binding surface microtiter plate (Corning, N.Y.) for 30 min. at 27° C. with a 0.5 μL volume of 50% DMSO and serially diluted compounds prepared in 50% DMSO. Kinase reactions were started with the addition of 45 μL of the ATP/Tyr-Sox peptide substrate mix and monitored every 30-90 seconds for 60 minutes at λex360/λem485 in a Synergy^4 plate reader from BioTek (Winooski, Vt.). At the conclusion of each assay, progress curves from each well were examined for linear reaction kinetics and fit statistics (R^2, 95% confidence interval, absolute sum of squares). Initial velocity (0 minutes to ˜30 minutes) from each reaction was determined from the slope of a plot of relative fluorescence units vs time (minutes) and then plotted against inhibitor concentration to estimate IC50 from log[Inhibitor] vs Response, Variable Slope model in GraphPad Prism from GraphPad Software (San Diego, Calif.).

Amino acid sequences for entries named in this document (tags omitted). A change or cut given only in a name is not applied to a line headed by its entry.
UniProt Q06187: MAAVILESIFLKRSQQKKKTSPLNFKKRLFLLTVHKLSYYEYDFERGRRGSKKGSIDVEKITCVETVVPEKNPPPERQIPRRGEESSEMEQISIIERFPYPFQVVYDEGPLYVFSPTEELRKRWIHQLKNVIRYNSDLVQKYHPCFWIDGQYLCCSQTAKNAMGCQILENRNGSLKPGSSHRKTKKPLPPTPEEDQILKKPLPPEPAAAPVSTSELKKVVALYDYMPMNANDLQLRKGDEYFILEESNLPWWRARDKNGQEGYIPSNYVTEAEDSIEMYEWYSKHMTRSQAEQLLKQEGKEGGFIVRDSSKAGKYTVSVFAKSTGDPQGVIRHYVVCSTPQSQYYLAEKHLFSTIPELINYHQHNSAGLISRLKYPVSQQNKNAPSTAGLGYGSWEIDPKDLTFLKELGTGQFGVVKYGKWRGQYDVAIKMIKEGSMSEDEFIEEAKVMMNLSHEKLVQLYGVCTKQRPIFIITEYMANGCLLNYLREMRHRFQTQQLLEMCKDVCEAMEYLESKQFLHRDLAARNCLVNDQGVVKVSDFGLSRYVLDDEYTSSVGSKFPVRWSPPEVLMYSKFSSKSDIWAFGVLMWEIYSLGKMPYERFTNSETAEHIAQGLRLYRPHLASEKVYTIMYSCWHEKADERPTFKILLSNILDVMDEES

Molecule `[2H]C([2H])([2H])OC([2H])([2H])C([2H])([2H])Oc1ccc(Nc2ncc(F)c(Nc3cccc(NC(=O)C=C)c3)n2)cc1` [II-7] has an IC50 of no more than 10 nM.

Source: patent publication US20160030426A1, “HETEROARYL COMPOUNDS AND USES THEREOF” (CELGENE AVILOMICS RESEARCH, INC., priority 2013, published 2016)
